# Experimental data from patent publication US20250319161A1, “IMPROVED METHODS OF TREATING DISEASES RESULTING FROM A MALADAPTED STRESS RESPONSE” (priority 2021, published 2025).
# Sequences of proteins named here, by UniProt entry; tags and fusion partners are left off.
# UniProt P47866, whole entry: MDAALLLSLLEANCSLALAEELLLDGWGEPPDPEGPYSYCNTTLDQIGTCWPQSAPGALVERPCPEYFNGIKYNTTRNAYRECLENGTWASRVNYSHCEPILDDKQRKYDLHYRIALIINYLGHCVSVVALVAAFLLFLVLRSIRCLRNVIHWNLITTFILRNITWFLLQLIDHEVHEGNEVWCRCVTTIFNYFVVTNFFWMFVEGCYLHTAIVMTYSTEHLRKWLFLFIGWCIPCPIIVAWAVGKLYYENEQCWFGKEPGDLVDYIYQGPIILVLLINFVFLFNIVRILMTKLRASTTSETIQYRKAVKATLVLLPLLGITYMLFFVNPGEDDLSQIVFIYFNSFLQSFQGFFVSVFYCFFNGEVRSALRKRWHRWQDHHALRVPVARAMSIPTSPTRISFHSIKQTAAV
# Where two headings read alike, the source gives them in different places. Marks after values point to notes of the source that are not given here.
# What was measured:
# clinical = conditions: human, plasma, subcutaneous
# CRFR2 [1] = biological target: T1, CRFR2 (Homo sapiens, UniProt Q13324); assay: Agonist potency at CRFR2 (EC50, % of Emax); assay type: cell-based
# T1 sequence (Q13324 1-411): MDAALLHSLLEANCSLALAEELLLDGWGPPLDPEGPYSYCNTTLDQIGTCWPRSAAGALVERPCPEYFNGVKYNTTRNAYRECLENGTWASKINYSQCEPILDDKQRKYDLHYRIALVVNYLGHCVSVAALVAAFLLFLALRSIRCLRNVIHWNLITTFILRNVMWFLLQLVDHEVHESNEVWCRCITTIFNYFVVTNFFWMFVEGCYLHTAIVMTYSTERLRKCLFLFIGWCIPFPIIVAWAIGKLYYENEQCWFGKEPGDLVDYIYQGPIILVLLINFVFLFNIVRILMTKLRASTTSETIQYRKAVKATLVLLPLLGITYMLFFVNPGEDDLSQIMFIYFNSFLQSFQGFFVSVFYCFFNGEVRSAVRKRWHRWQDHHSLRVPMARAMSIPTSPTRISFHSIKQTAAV
# [2] = healthy humans; PK-PD modeling of bolus dosing in prior Phase 1 trial
# CRFR2 [3] = biological target: CRFR2 (Rattus norvegicus, UniProt P47866); conditions: rats, identified together with CL; cited from earlier work
# [4] = human, in vivo
# CRFR2 [5] = biological target: T1, CRFR2; assay: Phase 1/2 trial in ME/CFS patients: acute heart rate and diastolic blood pressure changes; assay type: in vivo; set-up: from tissue; host or cells: human subjects, in vivo (clinical trials); conditions: D20pb (priming bolus 0.15 μg/kg + infusion 0.20-0.24 μg/kg/h), first patient
# Source text: FIG. 4 compares the pre/post-treatment changes in TDSS (total daily symptom score) and individual symptoms in the 28-day period prior to the start of treatment, with those in the 28-day period prior to exit from the trial, by dose group. […] TDSS improved persistently at D03 (pre: 29.2±3.7; post: 21.7±4.1; p=0.009; change: −25.7%), and trended better at D01 (pre: 28.7±3.4; post: 25.5±4.1; p=0.136; change: −11.1%) and D06 (pre: 31.3±2.4; post: 29.5±2.1; p=0.451; change: −5.6%), but worsened at D20 (pre: 30.1±5.1; post: 33.0±2.5; p=0.240; change: +9.6%). Most individual symptoms changed persistently, in a manner reflecting this biphasic dose-response. For instance, at D03, the therapeutic response was strong for most of the cardinal symptoms of ME/CFS, while at D20 symptoms predominantly worsened.
# [6] = healthy humans, prior Phase 1 trial; cited from earlier work
# [7] = D03: sc infusion 0.03 μg/kg/hour, 3.5 hours, 3 treatments
compound,measurement,setting,value
CC[C@H](C)[C@H](NC(=O)[C@@H](NC(=O)[C@H](CC(=O)O)NC(=O)[C@H](CC(C)C)NC(=O)[C@H](CC(C)C)NC(=O)[C@H](CCCNC(=N)N)NC(=O)[C@H](C)NC(=O)[C@H](CC(N)=O)NC(=O)[C@H](CC(N)=O)NC(=O)[C@H](C)NC(=O)[C@H](C)NC(=O)[C@H](CCC(N)=O)NC(=O)[C@H](CCC(N)=O)NC(=O)[C@H](CCCCN)NC(=O)[C@H](CCC(=O)O)NC(=O)[C@H](CCCCN)NC(=O)[C@H](CCC(=O)O)NC(=O)[C@H](CCC(N)=O)NC(=O)[C@H](CCCCN)NC(=O)[C@H](CCC(=O)O)NC(=O)[C@@H](NC(=O)[C@H](CCC(=O)O)NC(=O)[C@@H](NC(=O)[C@@H](NC(=O)[C@H](CCCCN)NC(=O)[C@H](CCCNC(=N)N)NC(=O)[C@H](CC(C)C)NC(=O)[C@H](CC(C)C)NC(=O)[C@H](CCC(N)=O)NC(=O)[C@H](Cc1ccccc1)NC(=O)[C@@H]1CCCN1C(=O)[C@H](CC(C)C)NC(=O)[C@H](CC(=O)O)NC(=O)[C@@H](NC(=O)[C@H](CO)NC(=O)[C@@H](NC(=O)[C@@H]1CCCN1C(=O)[C@@H]1CCCN1C(=O)CNC(=O)[C@@H]1CCC(=O)N1)[C@@H](C)CC)[C@@H](C)CC)C(C)C)[C@@H](C)CC)[C@@H](C)CC)[C@@H](C)O)C(N)=O [CT38],Cmax,"clinical; 0.06 ug/kg, mean Cmax, D06 (0.06 μg/kg/h)",0.27 to 0.31 ng/mL
same,Emax,CRFR2 [1],100%
same,"total AUC, human equivalent",[2],~7.0 ng·h/mL
same,Total AUC,CRFR2 [3],~40 ng·h/mL
same,plasma concentrations found intolerable,[4],> 0.7 ng/mL
CC[C@H](C)[C@H](NC(=O)[C@@H](NC(=O)[C@H](CC(=O)O)NC(=O)[C@H](CC(C)C)NC(=O)[C@H](CC(C)C)NC(=O)[C@H](CCCNC(=N)N)NC(=O)[C@H](C)NC(=O)[C@H](CC(N)=O)NC(=O)[C@H](CC(N)=O)NC(=O)[C@H](C)NC(=O)[C@H](C)NC(=O)[C@H](CCC(N)=O)NC(=O)[C@H](CCC(N)=O)NC(=O)[C@H](CCCCN)NC(=O)[C@H](CCC(=O)O)NC(=O)[C@H](CCCCN)NC(=O)[C@H](CCC(=O)O)NC(=O)[C@H](CCC(N)=O)NC(=O)[C@H](CCCCN)NC(=O)[C@H](CCC(=O)O)NC(=O)[C@@H](NC(=O)[C@H](CCC(=O)O)NC(=O)[C@@H](NC(=O)[C@@H](NC(=O)[C@H](CCCCN)NC(=O)[C@H](CCCNC(=N)N)NC(=O)[C@H](CC(C)C)NC(=O)[C@H](CC(C)C)NC(=O)[C@H](CCC(N)=O)NC(=O)[C@H](Cc1ccccc1)NC(=O)[C@@H]1CCCN1C(=O)[C@H](CC(C)C)NC(=O)[C@H](CC(=O)O)NC(=O)[C@@H](NC(=O)[C@H](CO)NC(=O)[C@@H](NC(=O)[C@@H]1CCCN1C(=O)[C@@H]1CCCN1C(=O)CNC(=O)[C@@H]1CCC(=O)N1)[C@@H](C)CC)[C@@H](C)CC)C(C)C)[C@@H](C)CC)[C@@H](C)CC)[C@@H](C)O)C(N)=O [CT38s],average total AUC,[7],2.46 ± 0.51 ng·h/mL
same,mean maximum plasma concentration of CT38,[7],0.18 ± 0.03 ng/mL
same,Total AUC,"patient 23, D20 (0.20-0.24 μg/kg/h), total dose 0.795 μg/kg, ignores leaked infusion",3.91* ng · h/ml
same,Total AUC,"patient 24, D20pb then D20, total dose 1.620 μg/kg",6.24 ng·h/mL
same,Total AUC,"patient 27, D03 (0.03 μg/kg/h), total dose 0.315 μg/kg",3.44 ng·h/mL
same,Total AUC,"patient 29, D03 (0.03 μg/kg/h), total dose 0.285 μg/kg, ignores leaked infusion",2.23* ng · h/ml
same,Total AUC,"patient 30, D03 (0.03 μg/kg/h), total dose 0.315 μg/kg",2.83 ng·h/mL
same,Total AUC,"patient 31, D03 (0.03 μg/kg/h), total dose 0.315 μg/kg",2.19 ng·h/mL
same,Total AUC,"patient 32, D03 (0.03 μg/kg/h), total dose 0.315 μg/kg",2.30 ng·h/mL
same,Total AUC,"patient 33, D03 (0.03 μg/kg/h), total dose 0.315 μg/kg",2.29 ng·h/mL
same,Total AUC,"patient 34, D06 (0.06 μg/kg/h), 2 treatments, total dose 0.420 μg/kg",2.94 ng·h/mL
same,Total AUC,"patient 35, D01 (0.01 μg/kg/h), 1 treatment, total dose 0.035 μg/kg",0.59 ng·h/mL
same,Total AUC,"patient 36, D06 (0.06 μg/kg/h), total dose 0.630 μg/kg",3.10 ng·h/mL
same,Total AUC,"patient 38, D01 (0.01 μg/kg/h), total dose 0.105 μg/kg",1.29 ng·h/mL
same,Total AUC,"patient 45, D01 (0.01 μg/kg/h), total dose 0.105 μg/kg",1.02 ng·h/mL
same,Total AUC,"patient 46, D03 (0.03 μg/kg/h), total dose 0.315 μg/kg",1.94 ng·h/mL
same,Cmax,"clinical; 0.01 μg/kg/h, Mean Cmax, patient 35, D01 (0.01 μg/kg/h), 1 treatment, total dose 0.035 μg/kg",0.12 ng/mL
same,Cmax,"clinical; 0.01 μg/kg/h, Mean Cmax, patient 38, D01 (0.01 μg/kg/h), total dose 0.105 μg/kg",0.09 ng/mL
same,Cmax,"clinical; 0.01 μg/kg/h, Mean Cmax, patient 45, D01 (0.01 μg/kg/h), total dose 0.105 μg/kg",0.11 ng/mL
same,Cmax,"clinical; 0.03 μg/kg/h, Mean Cmax, patient 27, D03 (0.03 μg/kg/h), total dose 0.315 μg/kg",0.24 ng/mL
same,Cmax,"clinical; 0.03 μg/kg/h, Mean Cmax, patient 29, D03 (0.03 μg/kg/h), total dose 0.285 μg/kg",0.16 ng/mL
same,Cmax,"clinical; 0.03 μg/kg/h, Mean Cmax, patient 30, D03 (0.03 μg/kg/h), total dose 0.315 μg/kg",0.2 ng/mL
same,Cmax,"clinical; 0.03 μg/kg/h, Mean Cmax, patient 31, D03 (0.03 μg/kg/h), total dose 0.315 μg/kg",0.17 ng/mL
same,Cmax,"clinical; 0.03 μg/kg/h, Mean Cmax, patient 32, D03 (0.03 μg/kg/h), total dose 0.315 μg/kg",0.16 ng/mL
same,Cmax,"clinical; 0.03 μg/kg/h, Mean Cmax, patient 33, D03 (0.03 μg/kg/h), total dose 0.315 μg/kg",0.17 ng/mL
same,Cmax,"clinical; 0.03 μg/kg/h, Mean Cmax, patient 46, D03 (0.03 μg/kg/h), total dose 0.315 μg/kg",0.15 ng/mL
same,Cmax,"clinical; 0.06 μg/kg/h, Mean Cmax, patient 34, D06 (0.06 μg/kg/h), 2 treatments, total dose 0.420 μg/kg",0.31 ng/mL
same,Cmax,"clinical; 0.06 μg/kg/h, Mean Cmax, patient 36, D06 (0.06 μg/kg/h), total dose 0.630 μg/kg",0.27 ng/mL
same,Cmax,"clinical; 1.62 μg/kg, Mean Cmax, patient 24, D20pb then D20, total dose 1.620 μg/kg",0.77 ng/mL
same,Cmax,"clinical; Mean Cmax, patient 23, D20 (0.20-0.24 μg/kg/h), total dose 0.795 μg/kg",1.03 ng/mL
same,hemodynamic effect,CRFR2 [5],increased heart rate and decreased diastolic blood pressure
same,"TEAEs Other: Metabolism/nutritional, number of events",[4],1
same,"TEAEs Other: Pain, number of events",[4],2
same,"TEAEs TDSS-Related: Anxiety, number of events",[4],1
same,"TEAEs TDSS-Related: Depression, number of events",[4],2
same,"TEAEs TDSS-Related: Shortness of breath, number of events",[4],1
same,onset of TEAEs after dose commencement,[4],≤ 10 h
same,safety concerns,[4],safety concerns were absent
same,share of TEAEs that were mild,[4],79.0%
same,share of TEAEs that were moderate,[4],18.5%
same,share of TEAEs that were severe,[4],2.5%
same,only severe TEAE,[4]; iv,tachycardia and hypotension
same,maximum tolerated bolus dose,[6],0.833 µg/kg
